Test results published in patent publication US20190119394A1.

Biological target: Death receptor 5 (DR5) on primary human pancreatic stellate cells (human) (UniProt O14763)
Assay: cell-based or functional assay

For “conatumumab (human anti-DR5 antibody, Creative Biolabs)”, the caspase-3/7 activity (apoptosis marker), culture-activated PSCs, 10^3 ng/mL was 10.8 fold.
